Data as given in BindingDB's records for doi:10.1021/acsmedchemlett.0c00302 (Merck, 2020).

Target: T1, Histone deacetylase 6 (Homo sapiens, UniProt Q9UBN7)
T1 sequence (Q9UBN7 whole entry): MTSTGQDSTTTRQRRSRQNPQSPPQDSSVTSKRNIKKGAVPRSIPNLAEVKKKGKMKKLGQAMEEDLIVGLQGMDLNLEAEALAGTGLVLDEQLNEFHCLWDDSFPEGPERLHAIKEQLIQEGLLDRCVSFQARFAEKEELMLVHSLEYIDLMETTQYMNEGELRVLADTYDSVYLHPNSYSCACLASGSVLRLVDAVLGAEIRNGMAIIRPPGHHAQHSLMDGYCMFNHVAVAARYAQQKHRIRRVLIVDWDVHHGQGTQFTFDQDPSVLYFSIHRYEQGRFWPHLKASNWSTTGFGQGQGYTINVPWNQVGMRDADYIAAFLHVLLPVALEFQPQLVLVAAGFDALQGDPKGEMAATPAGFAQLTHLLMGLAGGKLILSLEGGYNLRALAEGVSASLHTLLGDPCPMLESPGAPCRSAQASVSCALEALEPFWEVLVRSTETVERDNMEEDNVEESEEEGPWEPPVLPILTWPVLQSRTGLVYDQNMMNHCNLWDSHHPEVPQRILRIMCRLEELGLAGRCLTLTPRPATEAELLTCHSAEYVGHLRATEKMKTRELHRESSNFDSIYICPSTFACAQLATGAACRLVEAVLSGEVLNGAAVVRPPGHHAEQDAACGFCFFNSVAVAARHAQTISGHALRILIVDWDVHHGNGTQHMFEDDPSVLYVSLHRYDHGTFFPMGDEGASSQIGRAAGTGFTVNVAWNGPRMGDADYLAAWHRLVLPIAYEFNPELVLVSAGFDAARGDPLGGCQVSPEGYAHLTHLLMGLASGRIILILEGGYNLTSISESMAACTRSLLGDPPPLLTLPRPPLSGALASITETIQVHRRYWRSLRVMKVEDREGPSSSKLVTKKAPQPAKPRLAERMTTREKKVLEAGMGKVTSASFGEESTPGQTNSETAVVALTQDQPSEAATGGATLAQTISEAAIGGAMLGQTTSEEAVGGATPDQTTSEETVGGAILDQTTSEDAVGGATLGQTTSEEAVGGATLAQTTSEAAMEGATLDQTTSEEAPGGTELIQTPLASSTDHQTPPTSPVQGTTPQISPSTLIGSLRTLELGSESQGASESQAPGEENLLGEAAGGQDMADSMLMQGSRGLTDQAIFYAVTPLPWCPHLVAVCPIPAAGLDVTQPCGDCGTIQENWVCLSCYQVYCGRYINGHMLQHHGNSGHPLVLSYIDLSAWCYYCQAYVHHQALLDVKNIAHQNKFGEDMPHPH

IC50: > 45 µM
Compound: N[C@@H](CCCCCC(=O)c1ccon1)c1ncc(-c2ccccc2F)[nH]1
